## Apparent affinities of Ab-14 variants for a coronavirus HR2 peptide

Target peptide (SARS-CoV-2 spike, HR2 region): PDVDLGDISGINAS

The variants keep the heavy chain, the linker and the frameworks of Ab-14 (scFv order VH, a 15-residue (Gly4Ser)3 linker, VL).
VH: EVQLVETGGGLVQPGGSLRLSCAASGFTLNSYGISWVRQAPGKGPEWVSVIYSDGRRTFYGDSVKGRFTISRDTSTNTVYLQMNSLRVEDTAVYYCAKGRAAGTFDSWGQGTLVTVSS
VL: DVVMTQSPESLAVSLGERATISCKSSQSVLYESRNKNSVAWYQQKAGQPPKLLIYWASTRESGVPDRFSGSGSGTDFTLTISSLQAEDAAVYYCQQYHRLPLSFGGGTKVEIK

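The parent was found by panning a naive human phage display library on the peptide. These sequences belong to a second round, designed from the earlier measurements on random variants of the parent. Several design methods are mixed in this list. AlphaSeq pools MATa yeast showing the antibodies with MATalpha yeast showing the peptide. Mating (16 h, 30 °C) was followed by selection of diploids and sequencing of their barcodes. Each replicate has its own calibration line, from reference interactions of the BCL2 family. Mating was done six times.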

The parent's light chain CDRs are KSSQSVLYESRNKNSVA, WASTRES, QQYHRLPLS; each variant's own CDRs replace them letter for letter. This list holds designs with at most six substitutions. Affinities are written as log10 Kd with Kd in nM; a lower number is a better binder. "ND" means that the variant was in the library but no mating with the target was seen in that replicate; the authors take this as a sign of poor binding, and no number exists.

Variant KLSQSVLYESRNKNSVA / QASTRED / QQYHRLPLS gave -0.19, -0.13, -0.46, -0.69, -0.47, -0.32.
Variant KSLWSVLYESRNKNSVA / HASTRED / QQLHRLTLS gave 0.09, 0.36, 0.27, 0.22, -0.26, 1.05.
Variant KLSQSVLYESRNKNSVA / NASTRES / QNYHRLPLS gave 0.59, 0.64, 1.87, 0.48, 1.11, 1.57.
Variant KSSQSVLYQSRNKNSVA / EASTRES / QQYHRLPLS gave 0.61, 0.54, 0.53, 0.60, 0.47, 0.77.
Variant KFSQSVLYESRQKNSVA / NASTRES / QWYHRLPLS gave 1.84, 1.02, 0.84, 0.98, 1.37, 1.19.
Variant KISQSVLLESRNVNSVA / WHSERES / QQCHRLPLS gave ND, ND, ND, ND, ND, ND.
Variant KSSQIVLYESRNKNSVA / WASTRES / QQYHRLPLS gave ND, ND, 2.36, ND, ND, ND.
Variant IMSQSVLYESRNKNSVA / GASTRES / QQYHRLPLS gave 0.15, 0.20, 0.06, -0.19, 0.20, 0.23.
Variant KSSQSPLYESTNKNSVA / WAMTRES / QQYHRLPLS gave 1.71, ND, 1.54, ND, 2.12, ND.
Variant KVSQSVLYESGTKNSVA / NASQRES / TQYHRLPLS gave 0.26, 0.31, 0.14, 0.34, 0.21, 0.32.
Variant KSMQAVLYEGRNKFSVA / WASTRES / QQYHRLPLS gave ND, ND, ND, ND, ND, ND.
Variant KLPQSTKYESRNQNSVA / WASTRES / QQYHRLPLS gave 0.42, 0.63, 0.71, 0.48, 0.49, 0.48.
Variant KLSQSVLYESRNKQSVA / GASTRES / QQYHRLPLS gave -0.33, -0.52, -0.49, -0.64, -0.56, -0.31.
Variant KSSQSVLFESRNKNSVA / DASTREQ / QQYHRLPLS gave 0.72, 0.38, 0.35, 0.24, 0.21, 0.48.
Variant KVPQSVLYESRNKNSVA / DASTRES / QQYHRLPLS gave -0.63, -0.45, -0.55, -0.62, -0.59, -0.27.
Variant KSSQSELYEDRNKNSVA / NASQRES / QQYHRLPLS gave -0.14, -0.11, -0.28, -0.49, -0.25, 0.11.
Variant KSSQSVMYESMNKNSVA / WASTPES / QQKHRLPLS gave 1.65, 1.43, 2.04, ND, ND, ND.
Variant KSDQNVLYESWNKNSVA / WASTRIS / QQQHRLPLS gave ND, ND, ND, ND, ND, ND.
Variant KLSQSVLYESRNKNSVA / NASTREL / QQYHRLPLS gave 0.04, -0.13, 0.08, -0.05, 0.02, -0.07.
Variant KFSQLVLYESRAKNSVA / DASQRLS / QQYHRLPLS gave 0.25, 0.17, -0.07, -0.19, 0.14, 0.25.
Variant KTPQGDLYESRNKNSVA / GASVRES / QQYHRLPLS gave -0.19, -0.19, -0.08, -0.30, -0.32, -0.27.
Variant KSSQSVLYESRNKNSVA / QASTRES / QQYHRWPLS gave ND, ND, ND, ND, ND, ND.
Variant KFEWSWLYESRNKNSVA / NASTRES / QQYWRLPLS gave 1.17, 0.81, 0.85, 0.70, 1.11, 0.80.
Variant KSSQSVEYESQNKNSVA / QASTRES / QQYHRLPLS gave 0.70, 0.21, -0.14, 0.23, 0.46, 0.13.
Variant KMSKSVLYESRNKNSVA / WASTRES / QQYHRLPLS gave 0.66, 1.44, 0.59, 0.75, 1.09, 1.16.
Variant KLSQSFLYEERNKNSVA / NASQRES / QQYHRLPLS gave -0.05, -0.06, -0.41, -0.62, -0.33, -0.04.
Variant KSSQSVLYESRNKHSVA / WASQRED / QSYHRLPLS gave ND, 2.07, 2.66, 1.83, 2.33, 2.27.
Variant KLSQSVEYEARDKNSVA / DASTRMS / QQYHRLPLS gave 0.13, 0.16, -0.09, -0.17, 0.11, 0.23.
Variant KSSHSVWYESQNKNSVA / WASTRES / QQVHRLPLS gave ND, ND, ND, ND, ND, ND.
Variant KSSTSVLYESRNKNSVA / SASTRES / QQYSRLPLS gave 0.24, 0.45, -0.07, -0.21, 0.42, 0.51.
Variant KQSESVLYESRNKNSVA / DASTRSS / QQYHRLPLS gave 0.19, 0.05, -0.17, 0.05, 0.08, 0.11.
Variant KSGQGELYESRNKNSVA / GASTRES / QQYHRLPLH gave 0.31, 0.08, 0.10, -0.07, 0.11, 0.19.
Variant KSSYSELYESVNKNSVA / HASTRES / QQYHRLPLS gave 0.14, -0.19, -0.20, -0.17, -0.14, 0.11.
Variant KLSQSVLYESRNSNNVA / DASTRES / QQYHRLPLS gave -0.06, -0.33, -0.49, -0.22, -0.27, -0.15.
Variant KLSQSWLYESRNKNSVA / NASTRES / QQYHRLPLM gave -0.35, -0.38, -0.32, -0.63, -0.33, -0.53.
Variant KVSQSVLYESGTKNSVA / NASCRES / QQYHRLPLS gave 1.99, 0.87, 0.41, 0.72, 0.41, 0.49.
Variant KSSQNVLYESRNKNSVA / SASTRES / QQYHRLPLS gave 0.69, 0.13, 0.94, 1.01, 0.54, 0.60.
Variant KLQQSTLYESRNQNSVA / NASTRES / QQYHRLPLS gave 0.85, 0.78, 0.67, 0.55, 1.30, 0.65.

A selection of 4 entries from above:

| CDR-L1 | CDR-L2 | CDR-L3 | replicates, log10 nM |
|---|---|---|---|
| KSSTSVLYESRNKNSVA | SASTRES | QQYSRLPLS | 0.24, 0.45, -0.07, -0.21, 0.42, 0.51 |
| KLSQSVLYESRNKQSVA | GASTRES | QQYHRLPLS | -0.33, -0.52, -0.49, -0.64, -0.56, -0.31 |
| KSMQAVLYEGRNKFSVA | WASTRES | QQYHRLPLS | ND, ND, ND, ND, ND, ND |
| KSSHSVWYESQNKNSVA | WASTRES | QQVHRLPLS | ND, ND, ND, ND, ND, ND |

Nonspecific signal, from three strains lacking the peptide, appeared in 4% of pairings of all light chain designs, centred on 2.64 (5% of these signals below 1.59); values are not corrected for it. Of ten entries with the parent sequence, four were seen in most replicates (averages 0.34 to 2.37), three in one and three in none, so single entries are noisy. The range of this assay differs from that of the first round, and the authors advise against merging the two. The authors averaged sequences with at least three values out of six and counted those with two or fewer as poor binders.

Values reported by Li et al. 2023, doi:10.1038/s41467-023-39022-2 (FLAb copy).